Data as given in ChEMBL document CHEMBL1128565, “Aspartyl alpha-((diphenylphosphinyl)oxy)methyl ketones as novel inhibitors of interleukin-1 beta converting enzyme. Utility of the diphenylphosphinic acid leaving group for the inhibition of cysteine proteases” (J Med Chem, 1995).

Target: T1, Caspase-1 (Homo sapiens) (UniProt P29466)
T1 sequence (whole entry): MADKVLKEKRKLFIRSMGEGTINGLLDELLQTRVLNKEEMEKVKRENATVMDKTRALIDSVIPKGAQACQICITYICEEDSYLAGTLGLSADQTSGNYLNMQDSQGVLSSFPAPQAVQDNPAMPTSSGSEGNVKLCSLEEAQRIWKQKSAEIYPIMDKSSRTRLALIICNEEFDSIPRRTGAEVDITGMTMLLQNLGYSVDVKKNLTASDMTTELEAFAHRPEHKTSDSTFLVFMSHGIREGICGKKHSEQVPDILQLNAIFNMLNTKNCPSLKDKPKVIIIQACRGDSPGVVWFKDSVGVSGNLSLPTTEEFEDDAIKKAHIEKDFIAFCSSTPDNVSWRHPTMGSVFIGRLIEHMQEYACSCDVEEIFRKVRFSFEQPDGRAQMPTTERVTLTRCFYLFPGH
Assay: Inhibition of interleukin-1-beta converting enzyme at pH 7.4, 37 degree C

K obs / 1: 117000 M⁻¹ s⁻¹
SMILES: CC(C)[C@H](NC(=O)OCc1ccccc1)C(=O)N[C@@H](C)C(=O)N[C@@H](CC(=O)O)C(=O)COP(=O)(c1ccccc1)c1ccccc1
